Laboratory results: PMC11649918, “Development of a RIPK1 degrader to enhance antitumor immunity” (Nature Communications, 2024)

Protein sequences, listed by entry. Tags and fused reporters are not part of them.
UniProt Q13546, whole entry: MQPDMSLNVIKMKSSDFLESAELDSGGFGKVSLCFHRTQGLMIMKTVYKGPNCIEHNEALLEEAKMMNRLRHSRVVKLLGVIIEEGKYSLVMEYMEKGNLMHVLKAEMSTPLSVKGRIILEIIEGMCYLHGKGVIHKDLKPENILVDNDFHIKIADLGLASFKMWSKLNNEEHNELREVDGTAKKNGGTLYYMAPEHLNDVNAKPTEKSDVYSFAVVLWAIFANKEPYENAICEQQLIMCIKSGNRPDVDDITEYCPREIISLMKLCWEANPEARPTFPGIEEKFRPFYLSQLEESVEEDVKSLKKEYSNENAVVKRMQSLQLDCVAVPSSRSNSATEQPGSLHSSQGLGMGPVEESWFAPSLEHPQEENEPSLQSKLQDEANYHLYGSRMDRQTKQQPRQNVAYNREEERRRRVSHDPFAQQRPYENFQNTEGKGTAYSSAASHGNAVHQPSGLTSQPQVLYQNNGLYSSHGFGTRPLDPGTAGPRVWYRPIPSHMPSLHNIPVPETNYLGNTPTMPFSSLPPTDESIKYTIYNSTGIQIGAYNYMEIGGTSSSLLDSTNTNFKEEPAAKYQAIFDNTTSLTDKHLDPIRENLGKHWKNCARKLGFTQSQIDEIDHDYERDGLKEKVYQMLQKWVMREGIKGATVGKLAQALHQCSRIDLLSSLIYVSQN

Target: nLuc-RIPK1 (Homo sapiens, UniProt Q13546)
Experiment: NanoBRET-based in-cell RIPK1 target engagement assay
Settings: read-out: Kd between the tracer and RIPK1; tracer titrated in HEK293T cells expressing nLuc-RIPK1
Method: Fig. 2 LD4172, a RIPK1 PROTAC, induces potent and highly specific degradation of RIPK1 in a panel of cell lines. A Chemical structures of RIPK1 PROTAC LD4172 and its negative control, LD4172-NC. […] B Quantification of RIPK1 levels in Jurkat and B16F10 cells treated with various concentrations of LD4172 for 24 h, analyzed by Western blot. Results are representative of three independent experiments. Source data are provided as a Source Data file. C The DC50 and Dmax values of LD4172 were determined in various human and mouse cell lines. The screening of LD4172 across different cell types was conducted in a single experiment. DC50 represents the concentration at which 50% of RIPK1 is degraded, while Dmax indicates the maximum level of degradation achieved. […] E Quantification of RIPK1 degradation and resynthesis from (D). […] G Time-resolved fluorescence resonance energy transfer (TR-FRET) biochemical binding assay for RIPK1. […] Graph bars represent mean ± SD, and statistical significance was determined using a two-tailed unpaired t-test with P values indicated. […]
To elucidate the formation of a binary complex during RIPK1 degradation, we developed a competitive Nano-Bioluminescence Resonance Energy transfer (NanoBRET)-based target engagement (TE) assay to quantify the binding between RIPK1 and LD4172 in cells[14]–[16]. […]

Nc1ncnc2c1c(-c1ccc3c(c1)CCN3C(=O)Cc1cccc(OC(F)(F)F)c1)cn2CCCNC(=O)CCc1ccc2n1[B-](F)(F)[N+]1=C(c3ccc[nH]3)C=CC1=C2
Kd: 500 nM
